The source of these data is patent US11300640B2, “Protein reporters for ultrasensitive detection methods” (The Trustees of the University of Pennsylvania, priority 2017, dated 2022).

The conditions of the data set: 10 μM protein.

Read-outs that look alike come from different tables or passages of the source.

Consider maltose binding protein [MBP], for which the Tm by setting is: (10 mM sodium phosphate pH 8.0, no maltose) 53.9 ± 0.7 °C; (+ 1 mM maltose) 61.0 ± 0.8 °C.
